The results in this text go back to ChEMBL document CHEMBL1121934, “2,3-dihydro and carbocyclic analogues of tryptamines: interaction with serotonin receptors” (J Med Chem, 1982).

Protein sequences, listed by entry. Tags and fused reporters are not part of them.
UniProt P30994, whole entry: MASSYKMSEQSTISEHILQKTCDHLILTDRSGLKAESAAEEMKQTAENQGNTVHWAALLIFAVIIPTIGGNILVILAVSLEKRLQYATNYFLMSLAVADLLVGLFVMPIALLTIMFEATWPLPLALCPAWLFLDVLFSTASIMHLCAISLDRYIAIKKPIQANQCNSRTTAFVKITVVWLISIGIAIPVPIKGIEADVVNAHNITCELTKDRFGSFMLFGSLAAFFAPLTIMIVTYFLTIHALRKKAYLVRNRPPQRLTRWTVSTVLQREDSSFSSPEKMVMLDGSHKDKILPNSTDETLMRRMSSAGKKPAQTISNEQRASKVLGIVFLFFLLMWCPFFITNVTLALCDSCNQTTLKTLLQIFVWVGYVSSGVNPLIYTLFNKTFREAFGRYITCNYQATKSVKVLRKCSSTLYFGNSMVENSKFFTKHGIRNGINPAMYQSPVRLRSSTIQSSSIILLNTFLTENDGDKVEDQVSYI

This test concerns the target 5-hydroxytryptamine receptor 2B (Rattus norvegicus, UniProt P30994). Description: The binding affinity to 5-hydroxytryptamine 2B receptor of rat fundus. The note with it: read-out: pA2 (converted). In short, it runs like this:
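Isolated rat stomach fundus strip preparation. After a 1-h equilibration, 5-HT oxalate dose-response curves (9–11 increasing concentrations) were run without and with 4–5 increasing concentrations of test compound. Apparent affinity was expressed as pA2 by Arunlakshana–Schild analysis, with linear regression giving both pA2 and Schild plot slope.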

For the molecule `CN(C)CCc1c[nH]c2ccccc12`, the Kb was 1000 nM.

As to `COc1ccc2[nH]cc(CCN(C)C)c2c1` [MEBUFOTENIN], the Kb was 83.2 nM.
